Broadly, the IC50 is the concentration needed to halve the response being measured.

Protein sequences, listed by entry. Tags and fused reporters are not part of them.
UniProt P13516, whole entry: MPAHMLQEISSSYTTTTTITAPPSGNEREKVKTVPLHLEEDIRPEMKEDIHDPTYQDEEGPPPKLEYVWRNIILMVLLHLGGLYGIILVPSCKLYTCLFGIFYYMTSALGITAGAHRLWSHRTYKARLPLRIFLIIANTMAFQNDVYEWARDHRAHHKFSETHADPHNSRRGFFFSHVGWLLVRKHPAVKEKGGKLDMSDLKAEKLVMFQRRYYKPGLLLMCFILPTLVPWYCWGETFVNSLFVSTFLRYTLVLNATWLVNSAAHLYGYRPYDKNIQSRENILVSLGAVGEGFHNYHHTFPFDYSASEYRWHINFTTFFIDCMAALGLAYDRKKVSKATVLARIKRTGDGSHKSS

The target of the test is stearoyl-CoA desaturase (SCD) (Mus musculus, UniProt P13516). In words: SCD mouse liver microsome assay (tritiated stearoyl-CoA desaturation). The note with it: for % Remaining SCD activity compared to DMSO control, average: mouse liver microsomes 100 μg, 15 min RT preincubation, 15 min RT desaturation. A general note: Microsomes from liver hold many membrane-bound enzymes, among them those of drug oxidation.

With `O=C(NCCc1ccccc1)c1ccc(N2CCN(C(=O)c3ccccc3C(F)(F)F)CC2)nc1`, the “% Remaining SCD activity compared to DMSO control, average” value is, setting by setting: (0.1 uM test compound) 22.81%; (1 uM test compound) 2.50%; (10 uM test compound) 0.69%. Besides, the “% Activity 0.1 μM” value (Table 5, % remaining SCD activity at 0.1 μM, mouse microsome assay) is reported as 23%. In addition, the “% Activity 1 μM” value (Table 5, % remaining SCD activity at 1 μM, mouse microsome assay) stood at 2.5%. Further, the “% Activity 10 μM” value (Table 5, % remaining SCD activity at 10 μM, mouse microsome assay) is on record as 0.7%. In addition, the IC50 (read-out: IC50 value, stated in summary text) was 48 nM.

The record behind these values is patent publication US7390813B1, “Pyridylpiperazines and aminonicotinamides and their use as therapeutic agents” (Xenon Pharmaceuticals Inc., priority 2001, dated 2008).
